Measured values published in PubChem BioAssay AID1362 (SRMLSC, 2008).
Only a part is listed here, and it is no random draw. Some results for these compounds are left out of this collection, so the calls shown say nothing about other tests. Active and inactive are the calls of the source. No stated cut-off is given here; in the data, active means inhibition above about 58%; inactive means the rest, inconclusive results apart; tested in S. cerevisiae.

Experiment: growth inhibition of WT strain, primary screen, mitochondrial fusion inhibitor project, WT and mutant strains, chemical genetic (AID 1362)
Details: mitochondrial fusion phenotypic screen, at 10 µM, active compounds read high

| SMILES | inhibition |
| --- | --- |
| CC(C)N1C(=O)CC2(CCN(CCOC(=O)C(O)(c3ccccc3)c3ccccc3)CC2)C1=O | inactive: 1.17% |
| O=C(NCC1(N2CCCCC2)CCCCC1)c1cc([N+](=O)[O-])ccc1Cl | inactive: 13.4% |
| C=CCN1CCN(CCOC(=O)C(O)(c2ccccc2)c2ccccc2)CC1 | inactive: -22.2% |
| CCN1CCCC(OC(=O)C2(O)c3ccccc3C=Cc3ccccc32)C1 (centres undefined) | inactive: -6.04% |
| CN(C)C1CCCC1OC(=O)C(O)(c1ccccc1)c1ccccc1 (centres undefined) | inactive: 1.05% |
| Cc1ccccc1C(=O)NCC1(N2CCCCC2)CCCCC1 | inactive: 1.06% |
| COc1cccc(C(=O)NCC2(N3CCCCC3)CCCCC2)c1 | inactive: -2.45% |
| CN(C)c1cccc(C(=O)NCC2(N(C)C)CCCCC2)c1 | inactive: -11.6% |
| O=C(OC1CN2CCC1CC2)C(CO)(c1ccccc1)c1ccccc1 (centres undefined) | inactive: 0.68% |
